# Source: PubChem BioAssay AID588692 (Broad Institute, 2011)
# This is a selection; strong and weak results do not stand in their true shares. The source made the active and inactive calls.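 Rule for the calls: active = mean luciferase reporter signal, scaled so untreated is 0 and the glycosylation-blocking control 100, at or above a set limit in every replicate; inconclusive = mean reaches the limit but not every replicate does; inactive = mean below the limit.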
# Experiment: increase of ERlucT glycosylation luciferase signal, primary screen, N-linked glycosylation inhibitor project, D54 ERlucT cells, luminescence, set 2 (AID 588692);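 note: luciferase carries N-glycosylation sites so blocking glycosylation raises the light; 0% = median of neutral control wells and 100% = median of 100 nM tunicamycin wells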
# Conditions: 24 h, at 12.5 µM, hits give high values, percent of 100 nM tunicamycin response
row,Compound,reporter increase
1,C[C@@H]1C=CCP(=O)(Oc2ccccc2)O1 (stereo partly drawn),inactive: 4.95%
2,C[C@H]1OP(=O)(Oc2ccccc2)C[C@@H]2O[C@@H]21 (stereo partly drawn),inactive: 1.59%
3,Cc1ccccc1CN(C)C(=O)COC(=O)C(O)(c1ccccc1)c1ccccc1,inactive: -2.46%
4,CCc1cc(O)c([N+](=O)[O-])c(C)c1[N+](=O)[O-],inactive: 2.7%
5,CC(C)(C)C(=O)NC(Sc1ccccc1)C(Cl)(Cl)Cl (stereo not drawn),inactive: -2.22%
6,CCOc1ccc(C2=NCC(CBr)S2)cc1 (stereo not drawn),inactive: 0.845%
7,O=P1(Nc2nc3ccc(Cl)cc3s2)COc2ccccc2O1 (stereo not drawn),inactive: 0.853%
8,CN(C)C(=O)Oc1noc2ccccc12,inactive: -2.49%
9,O=c1c2cc([N+](=O)[O-])ccc2[nH]c2c([N+](=O)[O-])cc([N+](=O)[O-])cc12,inactive: -12.5%
10,Cc1ccccc1OP(=O)(Nc1ccccn1)Oc1ccccc1C,inactive: -1.57%
11,CC(NC(=O)COC(=O)C(O)(c1ccccc1)c1ccccc1)c1ccccc1 (stereo not drawn),inactive: 0.609%
12,CC(=O)NC(SC(=S)N(CC(C)C)CC(C)C)C(Cl)(Cl)Cl (stereo not drawn),inactive: 12.2%
13,Cc1ccc(OP(=O)(Nc2ccccn2)Oc2ccc(C)cc2)cc1,inactive: -1.39%
14,COC(=O)c1cc2c(s1)N=C(c1ccccc1)N(C)P2(=O)N1CCOCC1 (stereo not drawn),inactive: -1.27%
15,CCC(=O)N1C2C3N(C(=O)CC)C1C1N(C(=O)CC)C(C(N1C(=O)CC)N3C(=O)CC)N2C(=O)CC,inactive: 0.591%
16,O=C(OC1CN2CCC1CC2)c1ccccc1 (stereo not drawn),inactive: 0.886%
17,O=P1(N(CCCl)CCCl)OCCC2CCCCN21 (stereo not drawn),inactive: -0.157%
18,CCNC(=S)/N=C(\N)N[N+](=O)[O-],inactive: -0.248%
19,O=C(NC1CCS(=O)(=O)C1)NP(=S)(Oc1ccccc1)Oc1ccccc1 (stereo not drawn),inactive: -1.75%
20,Cc1ccc(NP(=O)(Oc2cccc(C)c2)Oc2cccc(C)c2)nc1,inactive: -4.02%
21,c1ccc(-c2nn[nH]n2)c(-c2nn[nH]n2)c1,inactive: -1.2%

row,Compound,reporter increase
1,CN(C(=O)Cc1ccc(Cl)c(Cl)c1)[C@H]1CC[C@@]2(CCCO2)C[C@@H]1N1CCCC1,inactive: -1.14%
2,CN(C)C(=O)c1cc([N+](=O)[O-])cc2c1-c1c(cc([N+](=O)[O-])cc1[N+](=O)[O-])C2=O,inactive: -0.174%
3,O=[N+]([O-])c1ccc2c(c1)nnn2O,inactive: -0.56%
4,CCOP1(=S)c2c(C)nn(CCC#N)c2N=C(c2ccc(F)cc2)N1C (stereo not drawn),inactive: 1.18%
5,CN(C(=O)Cc1ccccc1)[C@@H]1CC[C@]2(CCCO2)C[C@H]1N1CCCC1,inactive: -2.81%
6,N#CCCN(C(=O)COC(=O)C(O)(c1ccccc1)c1ccccc1)c1ccc(F)cc1,inactive: -0.168%
7,NC(=O)Nc1ccc([As](=O)(O)O)cc1,inactive: 1.76%
8,Nc1ccccc1[As](=O)(O)c1ccccc1,inactive: 0.552%
9,O=C(O)COc1ccc([As](=O)(O)O)cc1[N+](=O)[O-],inactive: 3.71%
10,CS(=O)(=O)c1cc([N+](=O)[O-])c2no[n+]([O-])c2c1,inactive: -1.19%
11,O=P(Nc1nccs1)(c1ccccc1)c1nc2ccccc2s1 (stereo not drawn),inactive: -7.03%
12,O=P(Nc1nccs1)(Oc1ccccc1)Oc1ccccc1,inactive: -2.38%
13,CCOP1(=S)c2c(C)nn(CCC#N)c2N=C(c2ccccc2F)N1C (stereo not drawn),inactive: 1.7%
14,CCOP(=O)(Nc1cccc2ccccc12)OCC,inactive: 0.669%
15,COc1cc(C2NCCC3(OCCO3)C2(C)C)cc(OC)c1OC (stereo not drawn),inactive: -1.26%
16,CCCOP(=S)(Nc1nc(N)cc(=O)[nH]1)OCCC,inactive: -0.387%
17,Cc1ccc(NCCc2c([N+](=O)[O-])cc([N+](=O)[O-])cc2[N+](=O)[O-])cc1,inactive: 0.12%
18,Nc1cccc2c([As](=O)(O)O)cccc12,inactive: 3.32%
19,O=[As](O)(c1cccc(O)c1)c1cccc(O)c1,inactive: 0.512%
20,Cc1cccc(OCC(=O)OC2CN3CCC2CC3)c1 (stereo not drawn),inactive: -0.007%
21,CS(=O)(=O)c1ccc(Cl)c(NC(=O)COC(=O)C(O)(c2ccccc2)c2ccccc2)c1,inactive: -0.432%

row,Compound,reporter increase
1,COc1cc(C(=O)NCC2(N3CCOCC3)CCCCC2)cc(Cl)c1OC(C)C,inactive: -7.85%
2,O=[As](O)(O)c1cccnc1,inactive: 3.38%
3,O=C(OC1CN2CCC1CC2)c1ccc(Cl)cc1 (stereo not drawn),inactive: -3.27%
4,CC1(CBr)Cn2c(nc3ccccc3c2=O)S1 (stereo not drawn),inactive: 2.39%
5,CC(C)/C=N\N=C(\N)N[N+](=O)[O-],inactive: 0.972%
6,CN(C(=O)Cc1ccc(Cl)c(Cl)c1)[C@@H]1CCCC[C@H]1N1CCCC1,inactive: -4.19%
7,COc1ccccc1CNC(=O)COC(=O)C(O)(c1ccccc1)c1ccccc1,inactive: -0.474%
8,CC(C)(C)C(=O)NC(Sc1ncccn1)C(Cl)(Cl)Cl (stereo not drawn),inactive: -1.15%
9,O=P1(N(CCCl)CCCl)NCCC(C(F)(F)F)O1 (stereo not drawn),inactive: 2.21%
10,Clc1n[nH]nc1-c1nn[nH][15n]1,inactive: -0.152%
11,CN(CCCl)Cc1cc(Cl)c(NC2=NCCN2)c(Cl)c1,inactive: -2.71%
12,CCOP(=O)(Nc1ccc(C)cn1)OCC,inactive: 0.668%
13,CCOP(=O)(NC(=NC(C)c1ccccc1)NC(C)c1ccccc1)OCC (stereo not drawn),inactive: 1.64%
14,O=P1(Nc2ccccn2)COc2ccccc2OC1,inactive: 0.796%
15,CCC1=CC2Cc3nc4ccc(Cl)cc4c(N)c3C(C1)C2 (stereo not drawn),inactive: -1.26%
16,O=P1(Nc2ccc(Br)cn2)COc2ccccc2OC1,inactive: -1.07%
17,NS(=O)(=O)c1cccc(NC(=O)COC(=O)C(O)(c2ccccc2)c2ccccc2)c1,inactive: -2.08%
18,Cc1ccc(OCC(=O)OC2CN3CCC2CC3)cc1 (stereo not drawn),inactive: 1.36%
19,O=[As](O)(c1cccs1)c1cccs1,inactive: 3.03%
20,Nc1cccc([As](=O)(O)c2ccccc2)c1,inactive: -0.47%
21,O=P1(Nc2ncccn2)COc2ccccc2OC1,inactive: 2.78%
